In the experiment the target is T1, IRBIT (IP3R-binding protein released with inositol 1,4,5-trisphosphate) in the high salt extract of mouse … (mouse, UniProt Q80SW1).
T1 construct: Endogenous protein extracted with 500 mM NaCl from crude microsome of mouse cerebellum, not purified; sites not determined; also called IRBIT in the high salt extract
Put plainly: GST pulldown from the high salt extract, Western blot with anti-IRBIT antibody. From the text:
FIG. 9A is the schematic representation of the structure of mouse IP₃R1 and the recombinant GST fusion proteins used in this study. The IP₃ binding core region is indicated with a gray box. Putative membrane-spanning regions are indicated with solid vertical bars. Roman numbers I to V indicate the domain structure of IP₃R1 determined by the limited trypsin digestion (51). Numbers above the bars represent corresponding amino acid residue numbers. […] The high salt extract of crude microsome obtained from mouse cerebella was incubated with GST fusion proteins shown in (A). Bound proteins were pulled down with glutathione-Sepharose, eluted with glutathione, and analyzed by Western blotting using anti-IRBIT antibody. […] Bound proteins were pulled down with glutathione-Sepharose, eluted with glutathione, and then analyzed by Western blotting using anti-IRBIT antibody (upper panel). GST fusion proteins pulled down with glutathione-Sepharose were stained with Coomassie Brilliant Blue (lower panel).
For the determination of the IRBIT binding region and the critical amino acid residue of IP₃R1, the diluted high salt extract was subjected to pulldown assay as described above with 100 pmol of GST, GST-EL, GST-Ia, GST-Iab, GST-IbIIa, GST-IIab, GST-IIbIIIa, GST-IIIab, GST-IV, GST-IV-Va, K508A or R441Q, and analyzed by Western blotting with anti-IRBIT antibody.
(Immunoblotting shows a protein as a band on a membrane.)

B1: GST (glutathione S-transferase alone, control) (other, UniProt P08515 1-218, looked up)
chain: MSPILGYWKIKGLVQPTRLLLEYLEEKYEEHLYERDEGDKWRNKKFELGLEFPNLPYYIDGDVKLTQSMAIIRYIADKHNMLGGCPKERAEISMLEGAVLDIRYGVSRIAYSKDFETLKVDFLSKLPEMLKMFEDRLCHKTYLNGDHVTHPDFMLYDALDVVLYMDPMCLDAFPKLVCFKKRIEAIPQIDKYLKSSKYIAWPLQGWQATFGGGDHPPK
notes: Control for GST-EL
In the case of B1, the binding result is recorded as “no binding (tested: 100 pmol GST)”.
